scFv variants of Ab-14 (light chain) against a SARS-CoV-2 spike peptide

Source: Li et al. 2023 (doi:10.1038/s41467-023-39022-2), MIT Lincoln Laboratory and A-Alpha Bio; data file from the FLAb repository.

Target peptide (SARS-CoV-2 spike, HR2 region): PDVDLGDISGINAS

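The parent was found by panning a naive human phage display library on the peptide. The variants were designed computationally from a first round of random CDR variants and then made and measured. Group labels follow the data file (Ctrl: baseline library sampled from a position-specific scoring matrix, with some repeated check sequences; En: ensemble of fine-tuned language models; GP: Gaussian process model; HC: hill climbing; Gen: genetic algorithm; Gibbs: Gibbs sampling; a sequence that several methods proposed may carry one label only). The assay is AlphaSeq: two haploid yeast populations carry antibody and antigen on their surface. After mating in shaken culture at 30 °C for 16 h, diploids were selected and their barcode pairs sequenced. Each replicate has its own calibration line, from reference interactions of the BCL2 family. There are six technical replicates.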

The variants keep the heavy chain, the linker and the frameworks of Ab-14 (scFv order VH, the linker GGGGSGGGGSGGGGS, VL).
VH: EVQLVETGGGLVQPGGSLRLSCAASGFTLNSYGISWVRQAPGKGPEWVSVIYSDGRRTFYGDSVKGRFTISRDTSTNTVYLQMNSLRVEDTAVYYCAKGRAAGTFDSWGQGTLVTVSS
VL: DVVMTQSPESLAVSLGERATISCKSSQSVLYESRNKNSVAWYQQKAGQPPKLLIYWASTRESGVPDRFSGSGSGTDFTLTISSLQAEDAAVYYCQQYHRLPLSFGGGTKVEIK

Variants are written as CDR1, CDR2 and CDR3 of the light chain (limits as in the source). Parent: KSSQSVLYESRNKNSVA, WASTRES, QQYHRLPLS. Values are log10 of the apparent Kd in nM; lower means stronger binding. "n.d." means that the variant was in the library but no mating with the target was seen in that replicate; the authors take this as a sign of poor binding, and no number exists.

CDR-L1 | CDR-L2 | CDR-L3 | group | log10 Kd (nM) by replicate
KMTTNLGHQASRKNSIA | EADMVAA | QQYMRLPLI | En_Gibbs | 0.30 0.56 0.48 0.46 0.39 0.41
KVQQMWLYGSRNCNSVA | DASQREE | QQYHRLPLS | GP_Gibbs | 0.47 0.70 0.65 0.39 0.48 0.59
KSSQSVLYESRNKNSVA | WASTGES | QQYHRLPLS | Ctrl | n.d. n.d. n.d. n.d. n.d. n.d.
KSSQSVLYESSNKNSVA | WASTNES | QQYHRLPLS | Ctrl | n.d. n.d. n.d. n.d. n.d. n.d.
KISFWDYRGSQWHNNIA | EGSQRAE | QQYSRLPLN | En_Gibbs | 0.48 0.68 0.66 1.57 0.21 0.66
KLGDMVHTESRNKNSIA | DMRTRES | QQYNRLPLS | En_HC | -0.23 -0.40 -0.36 -0.48 -0.50 -0.23
TVSQVHGMLTHNKNSVA | DMNTRGS | QQYDRLPLS | En_HC | 1.45 0.13 0.67 -0.63 0.16 0.37
KSEQSVPYESRNPNSVA | WASTRTS | QQYHRLPLS | Ctrl | 1.22 1.36 1.61 1.67 0.93 1.60
KIEQILFPYGNSWHSVA | NANTLLA | QQYYMLPLM | En_Gibbs | 1.37 1.10 1.05 1.48 1.15 1.22
QLDQAYRVGELWKESIA | HGSMRVE | QCYVRLPLS | En_Gibbs | 1.09 1.29 1.36 -0.03 1.71 1.00
KSSQSVLYESMNKNSVA | EASQRES | QQYHRLPLS | GP_HC | 0.51 0.31 0.25 0.05 -0.02 0.51
KMSQSVLYESRNLNSVA | SASTRES | QQYHRLPLS | Ctrl | 0.25 0.03 -0.11 -0.02 0.05 0.07
HTQHLGFGDPAHWNSIA | EVSQVCS | QQYMRLPLT | En_Gibbs | 0.37 0.75 0.14 0.31 0.47 0.43
KISQSVKMESRNKNSVA | DASTRES | QQYHRLPLS | GP_HC | 0.49 0.37 0.30 -0.18 0.14 0.45
KLSPSVMGWMRNKNSVA | NASTRRS | QQYHRLPLS | GP_Gibbs | 0.89 0.75 0.84 0.81 1.04 1.26
KSSFSYLIESRNKNSVA | EASTRES | QQYHRLPLS | GP_HC | -0.05 0.02 -0.04 -0.26 -0.34 0.16

Continued, with the values leading:

log10 Kd (nM) by replicate | CDR-L1 | CDR-L2 | CDR-L3 | group
0.08 0.42 0.25 0.94 0.17 0.16 | KLSQSVLMESRNKNSVA | NASTRES | QQYHRLPLS | GP_Gen
1.09 0.63 1.37 1.33 1.25 0.97 | MVTQMAMLGMTNKRSVA | NAEMREN | QQYHRLPLI | En_Gen
0.50 0.63 0.82 0.38 0.44 0.76 | KFGNGVHVESIMSNSIA | QTSTREE | QQYDRLPLS | En_HC
-0.11 -0.31 -0.43 -0.37 -0.42 -0.38 | KVMQSVLYEDRNVNNVA | NGSTRCS | QQYHRLPLS | GP_Gibbs
0.31 0.31 -0.35 -0.38 -0.29 0.37 | RLNDYQYAITGDNYAIA | NARETLM | QQYMRLPLT | En_Gibbs
0.61 0.64 0.52 0.89 0.71 0.80 | SIDEYQWYHEAVNQNIA | DAEAVRP | QQYAMLPLS | En_Gibbs
n.d. n.d. n.d. n.d. n.d. n.d. | RMSVFMLTDENVWYSIA | NSAAVRT | QQYQRLPLS | En_Gibbs
0.36 0.22 0.14 0.15 0.34 0.32 | KQSQSYHYESRNKNSVA | GASTRES | QQYHRLPLS | GP_HC
1.11 1.32 0.80 0.41 1.01 0.53 | DLTVSDNNGSQLENNIA | QGVEKCE | QQYSRLPLA | En_Gibbs
-0.28 -0.12 -0.21 -0.20 -0.36 -0.31 | KLEQSTLYESRNKNSVA | NASQRER | QQYKRLPLS | GP_Gibbs
0.53 0.44 0.10 0.09 0.03 0.51 | KLSQSNLYESRNKNSVA | NASTRFS | QQYHRLPLS | GP_Gen
0.64 0.36 0.56 0.25 0.34 0.32 | TLSQMMDMTSRNVNSVA | DLTTRGN | QQYHRLPLS | En_HC
0.99 0.59 0.31 0.50 0.42 0.69 | KLRMSTAYLSENKNSVA | ELTTRGN | QQYFRLPLS | En_HC
-0.30 -0.37 -0.58 -0.71 -0.60 -0.53 | KLSQSNLYESRNKNNVA | NASQRES | QQYHRLPLS | GP_Gen
0.31 0.24 0.21 -0.07 -0.05 0.24 | KLMMSGLYESRNKNSVA | EASTRES | QDYHRLPLS | GP_Gibbs
0.60 0.37 0.37 0.21 0.08 0.80 | KLSQLGLYEQRNCNSVA | SASTRCS | QQYHRLPLS | GP_Gibbs
1.36 n.d. n.d. n.d. 1.57 n.d. | KSGQSVLYESRNKNSVA | WASTRES | QQYHRLPLF | Ctrl

From the list, the first 3 with no signal in any replicate:

CDR-L1 | CDR-L2 | CDR-L3 | group | log10 Kd (nM) by replicate
KSSQSVLYESRNKNSVA | WASTGES | QQYHRLPLS | Ctrl | n.d. n.d. n.d. n.d. n.d. n.d.
KSSQSVLYESSNKNSVA | WASTNES | QQYHRLPLS | Ctrl | n.d. n.d. n.d. n.d. n.d. n.d.
RMSVFMLTDENVWYSIA | NSAAVRT | QQYQRLPLS | En_Gibbs | n.d. n.d. n.d. n.d. n.d. n.d.

The authors averaged sequences with at least three values out of six and counted those with two or fewer as poor binders. A sequence measured in both rounds can read differently, since the two assays cover different ranges. Nonspecific signal, from three strains lacking the peptide, appeared in 4% of pairings of all light chain designs, centred on 2.64 (5% of these signals below 1.59); values are not corrected for it. Of ten entries with the parent sequence, four were seen in most replicates (averages 0.34 to 2.37), three in one and three in none, so single entries are noisy.